Measured values as given in article PMC5638916, “CETSA quantitatively verifies in vivo target engagement of novel RIPK1 inhibitors in various biospecimens” (Scientific Reports, 2017).
“And” between values parts separate entries of the source, which are not always exact repeats. Equal values may be shown once. Read-outs that look alike come from different tables or passages of the source.

Key:
mouse RIPK1 [1] = target: T1, mouse RIPK1 (Mus musculus, UniProt Q60855); assay: cell-based; assay type: cell-based; conditions: L929 cells, compound 30 min, 47 °C for 8 min denature; read-out: mouse_ITDRF-CETSA (EC50) / L929-CETSA (EC50) (converted)
T1 sequence (Q60855 1-656): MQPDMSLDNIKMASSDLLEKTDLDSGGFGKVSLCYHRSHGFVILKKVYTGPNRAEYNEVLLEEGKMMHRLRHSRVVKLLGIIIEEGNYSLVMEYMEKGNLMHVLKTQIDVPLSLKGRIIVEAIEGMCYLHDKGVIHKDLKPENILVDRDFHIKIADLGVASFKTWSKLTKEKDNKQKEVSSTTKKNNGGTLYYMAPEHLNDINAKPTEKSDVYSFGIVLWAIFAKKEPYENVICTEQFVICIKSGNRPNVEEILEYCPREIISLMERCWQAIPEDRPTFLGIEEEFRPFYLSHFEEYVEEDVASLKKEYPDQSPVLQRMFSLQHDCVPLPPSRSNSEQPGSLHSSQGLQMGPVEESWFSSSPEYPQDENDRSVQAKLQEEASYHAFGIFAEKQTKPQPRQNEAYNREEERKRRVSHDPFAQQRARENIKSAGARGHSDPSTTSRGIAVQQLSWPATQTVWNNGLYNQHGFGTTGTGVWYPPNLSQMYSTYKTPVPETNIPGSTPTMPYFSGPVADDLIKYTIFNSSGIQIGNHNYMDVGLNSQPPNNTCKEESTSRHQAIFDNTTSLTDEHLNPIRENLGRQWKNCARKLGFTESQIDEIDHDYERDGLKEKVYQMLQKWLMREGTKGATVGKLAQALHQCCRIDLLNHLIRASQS

mouse RIPK1 [2] = target: T2, mouse RIPK1 (Mus musculus, UniProt Q60855); assay: biochemical
T2 sequence (Q60855 1-374): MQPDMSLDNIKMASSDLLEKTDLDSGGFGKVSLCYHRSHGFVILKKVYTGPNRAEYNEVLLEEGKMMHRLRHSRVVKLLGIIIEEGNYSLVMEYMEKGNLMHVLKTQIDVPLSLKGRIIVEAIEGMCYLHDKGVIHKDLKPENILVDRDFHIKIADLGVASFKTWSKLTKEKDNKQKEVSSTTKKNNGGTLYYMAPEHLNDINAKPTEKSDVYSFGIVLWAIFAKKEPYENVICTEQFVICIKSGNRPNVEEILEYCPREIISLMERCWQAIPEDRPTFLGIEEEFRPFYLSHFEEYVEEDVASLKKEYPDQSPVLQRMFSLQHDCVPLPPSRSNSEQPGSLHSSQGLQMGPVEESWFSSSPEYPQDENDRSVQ

mouse RIPK1 [3] = target: T2, mouse RIPK1; conditions: read-out: mRIPK1 enzyme (Ki); recombinant GST-His-mouse RIPK1 (1-374), TR-FRET competition
mouse RIPK1 [4] = target: T1, mouse RIPK1; assay: cell-based; conditions: mouse PBMCs suspended in plasma, 30 min, 47 °C for 8 min; one value per individual mouse; read-out: ITDRF EC50 in PBMCs

Compound	EC50 (mouse RIPK1 [1]) [nM]	Ki (mouse RIPK1 [2]) [nM]	Ki (mouse RIPK1 [3]) [nM]	EC50 (mouse RIPK1 [4])
CN1C(=O)[C@@H](N2CCc3nn(Cc4ccccc4)cc3C2=O)COc2ccccc21 [Compound 15]	> 30000	> 3300	–	–
CN1C(=O)[C@@H](N2CCc3c(nn(Cc4ccccc4)c3Cl)C2=O)COc2ccccc21 [Compound 18, (3S)-3-(2-benzyl-3-chloro-7-oxo-2,4,5,7-tetrahydro-6H-pyrazolo[3,4-c]pyridin-6-yl)-5-methyl-2,3-dihydro-1,5-benzoxazepin-4(5H)-one]	–	–	98	–
CNC(=O)c1ccc2c(c1)OC[C@H](N1CCc3c(nn(Cc4ccccc4)c3Cl)C1=O)C(=O)N2C [Compound 23]	290	130	–	–
CN1C(=O)[C@@H](N2CCc3cn(Cc4ccccc4F)nc3C2=O)COc2cc(C#N)ccc21 [Compound 25]	1600	–	–	7400 nM and 5100 nM
Nc1ncnc2occ(-c3ccc(NC(=O)Nc4cc(C(F)(F)F)ccc4F)cc3)c12 [GSK-compound 27, reference compound]	1600	3	–	–
CN1C(=O)C(Cc2c[nH]c3ccccc23)NC1=S (stereo not shown) [Nec-1, Necrostatin-1, reference compound]	2800	–	–	–
